{"source": "paper PMC10060287", "about": "(Pharmacological Reports, 2023)", "origin": "cited, not measured here", "system": "µ-opioid receptor (µOR)", "conditions": "cited from earlier work"}
{"smiles": "CN1CC[C@]23c4c5ccc(O)c4O[C@H]2[C@@H](O)C=C[C@H]3[C@H]1C5", "note": "[morphine]", "values": [{"measurement": "functional profile", "result": "unbiased ligand"}]}
